Earlier results, collected in publication PMC4234442 (Journal of Medicinal Chemistry, 2014).

Chains of the proteins cited; added tags and fusions are not shown. Lines headed by an entry give the natural chain unless they say otherwise; changes in a name come on top.
UniProt Q9Y5X5: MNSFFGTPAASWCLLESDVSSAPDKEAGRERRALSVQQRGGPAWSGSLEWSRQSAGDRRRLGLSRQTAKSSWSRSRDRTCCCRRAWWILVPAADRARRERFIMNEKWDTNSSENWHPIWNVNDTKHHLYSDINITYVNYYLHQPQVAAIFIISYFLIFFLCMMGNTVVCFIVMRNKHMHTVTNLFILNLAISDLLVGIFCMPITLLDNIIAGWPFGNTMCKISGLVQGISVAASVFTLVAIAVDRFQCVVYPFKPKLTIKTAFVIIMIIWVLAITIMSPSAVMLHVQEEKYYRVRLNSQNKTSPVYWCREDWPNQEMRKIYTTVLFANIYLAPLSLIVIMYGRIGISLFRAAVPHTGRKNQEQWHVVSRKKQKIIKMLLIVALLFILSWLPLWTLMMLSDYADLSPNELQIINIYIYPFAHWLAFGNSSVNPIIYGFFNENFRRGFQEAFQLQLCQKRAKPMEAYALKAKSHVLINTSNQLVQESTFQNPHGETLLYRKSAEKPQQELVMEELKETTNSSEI

Molecular target: NPFF2-R (Homo sapiens, UniProt Q9Y5X5)
Details: read-out: Ki in CHO hNPFF2-R; cited from earlier work

Q: With FLFQPQRFa [NPFF] as the substance, how does the Ki read?
A: Its Ki is 340 pM.
